molecular target: active p38 alpha enzyme (Upstate Biotechnology) (Homo sapiens, UniProt Q16539); assay: p38α biochemical assay (ATP turnover, luminescent detection, Cambrex PKlight); conditions: p38α biochemical assay, Table 1 Biological Activity
Protocol: The p38α biochemical assay employed is based on measurement of total ATP turnover following enzyme incubation with substrate in the presence of ATP with the use of a luminescent detection reagent (Cambrex PKlight). The assays were performed in 1536-well white opaque plates.
The final volume was 7.5005 μL as prepared prepared from the addition of 5 ul of kinase reaction (p38 alpah+MapkapK2+ATP) with 0.0005 μL compound dissolved in DMSO, and 2.5 ul of the detection reagent. Assay buffer contains the following reagents to give final concentration in the assay: 200 mM Tris, 100 mM MgCl2, 1.5 mM EGTA, 4 mM CaCl2, 20 mM MOPS, 1 mM EDTA, 1% glycerol, 0.1% B-Mecaptoethanol, and 1 mg/ml BSA. Test compounds are pinned using proprietary pintool technology (Kalypsys, Inc) and delivered as […] amounts into the 5 ul mixture of active p38 alpha enzyme (Upstate Biotechnology) and MapkapK2 (Upstate Biotechnology) whole protein as a substrate for phosphorylation in the presence of 1.4 uM final concentration ATP. Reactions are incubated at 30C for 2 hours and detection reagent is added in 2.5 ul/well amounts. Assay is read using a Perkin Elmer Viewlux.

By UniProt entry, the sequences of proteins in these tests, tags left out.
UniProt Q16539, whole entry: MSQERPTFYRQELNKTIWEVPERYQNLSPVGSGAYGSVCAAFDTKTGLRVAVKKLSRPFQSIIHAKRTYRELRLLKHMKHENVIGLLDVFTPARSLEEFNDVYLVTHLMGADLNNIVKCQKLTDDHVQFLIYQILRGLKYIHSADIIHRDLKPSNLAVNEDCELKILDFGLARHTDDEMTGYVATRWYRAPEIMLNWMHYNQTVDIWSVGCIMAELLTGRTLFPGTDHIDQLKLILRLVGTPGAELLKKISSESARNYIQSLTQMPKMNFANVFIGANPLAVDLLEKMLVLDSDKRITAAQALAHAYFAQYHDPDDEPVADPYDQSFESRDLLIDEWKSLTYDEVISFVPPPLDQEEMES

SMILES | IC50 [nM]
CC(C)NC(=O)c1csc(-c2oc(CNC(=O)c3ccc(I)cc3)nc2-c2ccc(F)cc2)n1 | > 1000
CC(C)NC(=O)c1csc(-c2oc(CNC(=O)c3cccc(I)c3)nc2-c2ccc(F)cc2)n1 | > 1000
CC(C)NC(=O)c1csc(-c2oc(CN3CCN(C(=O)c4cccc(I)c4)CC3)nc2-c2ccc(F)cc2)n1 | > 1000
CC(C)NC(=O)c1csc(-c2oc(CN3CCN(C(=O)c4ccc(I)cc4)CC3)nc2-c2ccc(F)cc2)n1 | > 1000

same assay, conditions: p38α kinase; Table 1 Biological Activity

SMILES | IC50 [nM]
Cc1cccc([N+](=O)[O-])c1C(=O)N1CCC(c2[nH]nc(-c3ccc(F)cc3)c2-c2nc(C(=O)NC(C)C)cs2)CC1 | > 1000
CC(C)NC(=O)c1csc(-c2c(-c3ccc(F)cc3)noc2CNC(=O)c2ccc(I)cc2)n1 | > 1000
CC(C)NC(=O)c1csc(-c2c(-c3ccc(F)cc3)n[nH]c2C2CCN(C(=O)c3cccc(I)c3)CC2)n1 | > 1000
CC(C)NC(=O)c1csc(-c2c(-c3ccc(F)cc3)n[nH]c2C2CCN(C(=O)c3ccc(I)cc3)CC2)n1 | > 1000
